We go through one molecule from patent publication US7867492B2, “Compounds for hedgehog pathway blockade in proliferative disorders, including hematopoietic malignancies” (The John Hopkins University, priority 2007, dated 2011).

One test has as its system Gli. Briefly: Hh reporter in 3T3 cells cotransfected with SmoA1, Gli2 or Gli1. Format: cell-based. Conditions: presence or absence of ShhN.
Test [1] has as its system hematopoietic malignancy cells. Briefly: Hh pathway activity and viability of hematopoietic malignancy cells in vitro. Type of test: cell-based.
The subject of test [2] is prostate tumor xenografts. Conditions: nude mice.

In the case of `CC1=C2C[C@H]3[C@@H](CC=C4C[C@@H](O)CC[C@@]43C)[C@@H]2CC[C@]12O[C@@H]1C[C@H](C)CN[C@H]1[C@H]2C` [Cyclopamine, cyclopamine], the “Hh reporter activity induced by SmoA1, Gli2 or Gli1 over-expression” value in the test on Gli is listed as “unable to block the pathway activity”. Besides, in test [1], the “Elevated Hh pathway activity in hematopoietic malignancy cells” value was “effectively reduced elevated Hh pathway activity” and the “Viability of hematopoietic malignancy cells” value was “reduced viability of the cells”. For the same molecule, the “Growth of prostate tumor xenografts” value in test [2] is reported as “suppressed growth of prostate tumor xenografts”.
